{
  "source": "patent US8106007B2",
  "about": "“Conjugates of a polypeptide and a pentasaccharide” (N.V. Organon, priority 2005, dated 2012)",
  "origin": "cited, not measured here",
  "conditions": "species not given; cited from earlier work",
  "data": [
    {"substance": "interleukin-2: protein produced naturally in the body by white blood cells (T-lymphocytes)", "values": [
      {"measurement": "t ½", "result": 20, "unit": "min"}
    ]}
  ]
}
